Ab-14 heavy chain CDR variants: yeast mating affinities

From the AlphaSeq antibody data of Li et al. 2023 (doi:10.1038/s41467-023-39022-2), copy in the FLAb collection.

Antigen: PDVDLGDISGINAS, a 14-residue peptide of the SARS-CoV-2 spike HR2 region.

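These sequences belong to a second round, designed from the earlier measurements on random variants of the parent. Their group label is 14H_Rand (Rand: our label for a block that the file lists under HC and that is probably the random mutants of the ten best first-round binders). In AlphaSeq, yeast of one mating type display the scFv and yeast of the other type display the target. Pairs that bind mate more often; barcode pairs of the diploids are counted by sequencing. Scores were corrected for input abundance and mapped to Kd with protein pairs of known affinity run in the same pool. Each pool was mated in six replicate cultures.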

Each scFv is VH, three GGGGS repeats, VL, as in the parent Ab-14, and differs from it in the CDRs of the heavy chain only.
VH: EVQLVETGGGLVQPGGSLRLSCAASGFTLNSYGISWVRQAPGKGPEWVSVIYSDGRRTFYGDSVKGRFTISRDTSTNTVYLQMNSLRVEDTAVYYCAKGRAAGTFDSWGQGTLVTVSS
VL: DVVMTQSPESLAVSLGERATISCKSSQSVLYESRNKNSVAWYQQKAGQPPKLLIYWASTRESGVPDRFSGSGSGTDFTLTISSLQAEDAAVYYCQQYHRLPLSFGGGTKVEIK

Variants are written as CDR1, CDR2 and CDR3 of the heavy chain (limits as in the source). Parent: GFTLNSYGIS, VIYSDGRRTFYGDSVK, GRAAGTFDS. The read-out is the apparent dissociation constant on a log10 scale (nM): the lower, the stronger. A pair that was not seen in that replicate is written "nd"; this usually means weak binding, but a binder can also be missed. The authors' rule: three or more of the six replicates give a measured affinity, fewer mean a poor binder. The range of this assay differs from that of the first round, and the authors advise against merging the two. As a blank, each scFv also met three strains without target: over all heavy chain designs, 1% of these pairings were detected, typically at 2.08 and seldom below 0.84. The control count says in how many pairings with the empty strains this scFv gave a signal, with their mean in brackets. The parent sequence was in this pool as ten entries: three were never detected, three once, and four in most replicates, with averages from 0.34 to 2.37.

CDR-H1,CDR-H2,CDR-H3,"replicates, log10 nM",control signals
GFTLNDYGIS,VEYSDGRRTQYIDFVK,FRRADTFDN,nd nd nd nd nd nd,0 of 18
GFTLNDYGIS,VIYSDGRRQFYGDSVK,GRAALTFCS,nd nd nd nd nd nd,0 of 18
GFTLNDYGIS,VIYSDDRRTFYGDSVK,GRAAITFIS,nd nd nd nd nd nd,0 of 18
GFTLNDYKIS,VIYFDGRRTQYIDSVK,GRAAGTGDS,nd nd nd nd nd nd,0 of 18
GFTLNEYGIS,VIYSDGRRTQYTDSVK,GRFAGTFDS,nd nd nd nd nd nd,0 of 18
GFTLNDYGID,VIYQDGRMTQYIDSVK,GRAAGTFDS,nd 1.96 nd 1.28 nd nd,0 of 18
GFTLNSYGIS,VIYHDGRRTFYDDSVK,GQNAGTFDS,nd 1.04 nd 2.27 nd 1.90,0 of 18
RFTLNQYGIS,VIWSDGRRTFYSDSVK,GRAAGHFDS,nd nd nd nd nd nd,1 of 18 (1.55)
GFILNQYGIS,VIYSDGRRTFYSDSVK,TRAAGFFDS,nd nd nd nd nd nd,0 of 18
GCTLNSYGIS,VIYSDGRRTFYDDSVK,GQLAGTFDN,nd nd nd nd nd nd,0 of 18
EFTLNQYGIS,VIYSDGRRTFYSDSVK,GRAAGFDDS,0.47 0.88 1.49 0.72 0.63 0.54,0 of 18
GQTLNEYGIS,VIYSDGRRTRYTDSVK,GRPAGTFDS,nd 2.03 nd nd nd 4.33,0 of 18
GFTLDSYGIS,VIYSDGTRTWYGDSVK,GRAAGTALM,nd nd nd nd nd nd,0 of 18
GFTLNEYGIS,VIYSDNRRTVYGDSVK,GRAAVTSDQ,nd nd nd nd nd nd,1 of 18 (2.20)
GFDLNSVGIS,VIYSDGRRTFYGDSVK,GRAAGWFNS,nd nd nd nd nd nd,0 of 18
GFDLNSYGIS,VIYSDGRRTFYGDSEK,GRAAGWFNS,nd nd nd nd nd nd,0 of 18
GFDLNSYGIS,VIYQDGRRKFYGDKFK,GRAAGWFNS,nd nd nd nd nd nd,0 of 18
GFTLNEYGIS,VIYSDGRRTFYGDSVK,GAAAVTFNQ,nd nd nd nd nd nd,0 of 18
GFTLDSPGIS,VIYSDGRRTFYGDSVK,GRAAKTALS,nd nd nd nd nd nd,0 of 18
GFTLNSDGIS,VIYSDGRRTFYDDSGK,GQLAGTFDS,nd nd nd nd nd nd,0 of 18
GFTLNDYGIS,VIYSDGRRTQYIDSVK,GRAATRFDS,nd nd nd nd nd nd,0 of 18
GFTLNEYGIS,VIYQDNRRTFYGDSVK,GRAAVTFDQ,nd nd nd nd nd nd,0 of 18
GFTFNSYGIS,VIYSDGRRWFYSDSVK,GRAGGTFDS,nd nd nd nd nd nd,0 of 18
GFTANSYGIS,VIYSDGRRTFYDDSVK,GQLAGTFDS,nd 2.48 nd nd 2.58 nd,0 of 18
GFTLNDYGAS,VIYSDGRRTFYGDSVK,GRAALTFIS,nd nd nd nd nd nd,0 of 18
GFTLNDYGIS,VIYSDWRRTFYGISVK,GRNNLTFIS,nd nd nd nd nd nd,0 of 18
GFTLNSYGCS,VIYSDSRRTFYSDSVK,ERAGGTFDS,nd nd nd nd nd nd,0 of 18
GFTLDSYGIS,VIYSCGRRTFYGDSVK,GRAAGTALN,nd nd nd nd nd nd,0 of 18
GFTLNDYGIS,VIYSDGRLTQYIDSVK,GRAAGAFDS,nd nd nd nd nd nd,0 of 18
GFHLNSYGKS,VIYADGRRTFYSDSVK,GRAYGTNKS,nd nd nd nd nd nd,1 of 18 (2.38)
GFVLNCYGIS,VIYQDGRRTIYGDSVK,ERAALTFIS,nd nd nd nd nd nd,0 of 18
GFTLNSYGIS,VIYSDGRRTRYDDSVK,GQLAGTFDS,nd nd 2.11 nd nd nd,0 of 18
GFTLNSYGIS,VIYSDGRRTFYEDSVK,GRAGGTFDS,nd nd nd nd nd nd,0 of 18
GFTLNDYGIS,VIYSDGRRTFYGDGVK,GRANLTFIS,nd nd nd nd nd nd,0 of 18
GFTLDSYGIT,VIYSDNRRTFYGDSVK,GRAAGTALS,nd nd nd nd nd nd,0 of 18
GFTLNDYGIS,VIYSDGRRTFYGDSVK,GRAKLTFIS,nd nd nd nd nd nd,0 of 18
GTTLNSYGIS,VIYADGRRTFYGDSVK,GRAAGTNKS,nd nd nd nd nd nd,0 of 18
GFTLNGYGIS,VIYSSGARTFQGDSVK,GRAALTFIS,nd nd nd nd nd nd,0 of 18
GFTLNEYGIS,VTYSDGRRTFYTDSMK,VRFAGTFDS,nd nd nd nd nd nd,0 of 18
GFDANSYGIS,VIYSDGRMTFYGDSVK,GRAAGWFTS,nd nd nd nd nd nd,0 of 18
GFTPNSYGIS,VIYSDGRRTFYDDSVK,GQLAGTMDS,nd nd nd nd 2.22 1.66,0 of 18
GFTLNSYGIS,VIYSDGRRTFYDWSVK,GQLAMTFDS,nd nd nd nd nd nd,0 of 18
GFTLNSYGHS,VKYADGRRTFYGDSVK,GRAAGTNKS,nd nd nd nd nd nd,0 of 18
TFTLNDYGIS,VIYSDGRRTFYGDSVK,GRAALDFIS,-0.46 -0.65 -0.54 -0.88 -0.75 -0.55,0 of 18
GFTLNEYPIS,VPYSDGRRTFYGDSVK,GRAAVTFDQ,nd nd nd nd nd nd,0 of 18
GFTLNGYGIS,VIYSDGRRTFYSDSVK,GTAAGFFDS,1.36 1.28 0.71 1.24 0.29 1.33,0 of 18
GFDLNNYGIS,VIYSDGRRTFYVDSVK,GRAAGWFNS,-0.09 0.10 -0.30 0.75 0.33 -0.01,0 of 18
GFTLNSRGIS,VIYSDGRRFFYSDSVK,GRAGGTFDS,nd nd nd nd nd nd,0 of 18
GFTLDSYGIS,VIYSDGQRTFYGDSVK,GRAAGTALS,nd nd nd nd nd nd,0 of 18
GFTWDSYGIP,VIYSDGRRTFYGDSVK,GRAAGTALS,nd nd nd nd nd nd,0 of 18